The values that follow come from patent US9199981B2 (NOVARTIS AG, priority 2011, dated 2015).

Sequences of proteins named here, by UniProt entry; tags and fusion partners are left off. Residues count along the entry.
UniProt P10721, 26-976: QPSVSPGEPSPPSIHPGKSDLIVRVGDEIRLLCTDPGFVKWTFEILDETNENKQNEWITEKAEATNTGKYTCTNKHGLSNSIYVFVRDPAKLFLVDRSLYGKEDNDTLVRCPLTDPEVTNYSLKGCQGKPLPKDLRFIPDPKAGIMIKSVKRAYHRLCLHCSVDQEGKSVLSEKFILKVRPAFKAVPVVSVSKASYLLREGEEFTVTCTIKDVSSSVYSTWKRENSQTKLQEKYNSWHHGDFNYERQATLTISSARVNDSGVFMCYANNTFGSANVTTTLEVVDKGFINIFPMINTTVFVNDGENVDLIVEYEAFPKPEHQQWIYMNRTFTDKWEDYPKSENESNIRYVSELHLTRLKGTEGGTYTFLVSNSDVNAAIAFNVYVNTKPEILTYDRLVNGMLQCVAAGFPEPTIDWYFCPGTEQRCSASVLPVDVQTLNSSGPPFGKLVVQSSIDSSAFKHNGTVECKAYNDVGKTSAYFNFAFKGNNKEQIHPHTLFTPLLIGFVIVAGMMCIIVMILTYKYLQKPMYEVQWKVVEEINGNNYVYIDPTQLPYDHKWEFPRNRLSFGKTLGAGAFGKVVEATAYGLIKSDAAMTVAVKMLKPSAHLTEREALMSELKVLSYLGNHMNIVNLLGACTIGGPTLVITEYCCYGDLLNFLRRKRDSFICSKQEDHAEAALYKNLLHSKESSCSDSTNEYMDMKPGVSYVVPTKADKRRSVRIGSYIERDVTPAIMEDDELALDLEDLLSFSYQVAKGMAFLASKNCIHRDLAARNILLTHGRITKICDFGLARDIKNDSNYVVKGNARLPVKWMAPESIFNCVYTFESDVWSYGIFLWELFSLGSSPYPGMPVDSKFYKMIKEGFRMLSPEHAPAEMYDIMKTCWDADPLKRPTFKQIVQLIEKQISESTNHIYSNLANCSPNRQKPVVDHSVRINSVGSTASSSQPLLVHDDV

The experiment deals with c-kit (Homo sapiens (Human), UniProt P10721). As to the kind of experiment: Mo7e cell proliferation assay (SCF dependent proliferation). In kind it is cell-based. The following applies: Mo7e cells stimulated with human recombinant SCF, 48 hours, 1% FBS. As to the method: Compounds of Formula (I) and Formula (II) provided herein were assayed to measure their capacity to inhibit c-kit and PDGFR kinases using the appropriate assay described below: c-Kit inhibition was evaluated using the Mo7e cell proliferation assay, and PDGFR inhibition was evaluated using the Rat A10 cell proliferation assay and the Human TG/HA-VSMC cell proliferation assay.
Mo7e Cell Proliferation Assay
The compounds of Table 1 and Table 2 were tested for inhibition of SCF dependent proliferation using human Mo7e cells which endogenously express c-kit in a 384 well format. […] After 48 hours of incubation at 37° C., cell viability was measured by adding 25 uL of CellTiter Glo (Promega) to the cells and the luminescence was measured by a CLIPR CCD camera (Molecular Devices).
The IC50 value is given as that concentration of the test compound in question that provoke a response halfway between the baseline and maximum responses.

The term IC50 denotes the concentration at which inhibition is half-maximal. Take `Cc1ccc(-c2noc(C3CC4(CC(O)C4)C3)n2)cc1NC(=O)c1cnc2ccccn12` (centres unmarked) [F100, N-(5-(5-(6-hydroxyspiro[3.3]heptan-2-yl)-1,2,4-oxadiazol-3-yl)-2-methylphenyl)imidazo[1,2-a]pyridine-3-carboxamide]: the IC50 was 66 nM. For `Cc1ccc(-c2noc(C3CC(O)C3)n2)cc1NC(=O)c1cnc2ccccn12` (centres unmarked) [F122], the IC50 was determined as 135 nM.
